Test results as given in publication PMC11272611, “Phase Ib and pharmacokinetics study of alpelisib, a PIK3CA inhibitor, and capecitabine in patients with advanced solid tumors” (Frontiers in Oncology, 2024).

Experiment: Pharmacokinetics of alpelisib and capecitabine in plasma (LC-MS/MS, non-compartmental)
Type: in vivo
Conditions: human, oral, Dose level 2 (n=3): alpelisib 300mg+capecitabine 1250mg/m^2, day 1 of cycle 1, mean (range); for AUC(0-t): read-out: AUC0-6h
Protocol: The pharmacokinetic (PK) analysis was conducted in all patients who received at least one dose of alpelisib and capecitabine combination therapy. Blood samples were collected at specified time points, including pre-dose, 1, 2, 4, and 6 hours post-dose, on day 1 of cycle 1. Measurements of alpelisib and capecitabine were carried out with a validated LC-MS/MS assay. PK parameters, including maximum plasma concentration (Cmax), time to reach maximum plasma concentration (tmax), area under the plasma concentration-time curve (AUC), and elimination half-life (t1/2), were calculated using non-compartmental methods. […] The data were presented as the mean (range) and standard deviation (SD).

SMILES | Cmax | half-life | AUC(0-t)
Cc1nc(NC(=O)N2CCC[C@H]2C(N)=O)sc1-c1ccnc(C(C)(C)C(F)(F)F)c1 [alpelisib] | 2040 ng/mL | 4.3 h | 8190 ng·h/mL
CCCCCOC(=O)Nc1nc(=O)n([C@@H]2O[C@H](C)[C@@H](O)[C@H]2O)cc1F [capecitabine] | 7000 ng/mL | 0.73 h | 8710 ng·h/mL
